# Test results reported in published antibiotic growth screens (doi:10.1038/s41589-023-01349-8).
# The other results are listed elsewhere or left out.
# Tested on: A. baumannii ATCC 17978
# Assay: relative growth (fraction of control); higher = less inhibition
# Settings: 50 µM
row,SMILES,relative growth
1,CCOC(=O)CNc1nnc(N)[nH]1,1.17
2,Cc1ccccc1Nc1nnc(C)c(=O)n1N,1.11
3,Cc1ccsc1/C=C/C1=NCCCN1C.O=C(O)CC(O)(CC(=O)O)C(=O)O,0.929
4,COc1ccc(-c2cc(C(F)F)nn2-c2ccc(S(N)(=O)=O)cc2)cc1F,1.04
5,Cc1ccc2nc(-c3ccncc3)cc(-c3ccccc3)c2c1,0.931
6,Cc1cccc2c1OCC[C@@H](N)C2=O,0.987
7,CC(=O)OCC(=O)[C@@]12OC(C)(C)O[C@@H]1CC1C3C[C@H](F)C4=CC(=O)C=C[C@]4(C)[C@@]3(F)[C@@H](O)C[C@@]12C (some centres undefined),1.32
8,CC(C)NC(=O)N[C@H]1CCCCNC1=O,0.96
9,O=c1c2cc(O)c(O)cc2oc2cc(O)c(C3O[C@H](CO)[C@@H](O)[C@H](O)[C@H]3O)c(O)c12 (some centres undefined),1.04
10,O=C(C[C@H]1C=C[C@@H](NC(=O)CN2CCOCC2)[C@H](CO)O1)NCCc1ccncc1,0.968
11,Cl.O=c1n(CCCN2CCN(c3cccc(Cl)c3)CC2)nc2ccccn12,0.83
12,COc1ccc(-c2ccc3c(c2)O[C@@H](CN(C)CC2CCOCC2)[C@@H](C)CN([C@H](C)CO)S3(=O)=O)cc1,0.964
13,C[C@H](CO)N1C[C@H](C)[C@H](CN(C)Cc2cncnc2)Oc2cc(C3=CCCCC3)ccc2S1(=O)=O,0.755
14,O=Cc1ccccc1O[C@@H]1O[C@H](CO)[C@H](O)[C@@H](O)[C@H]1O,1.02
15,O=C(C[C@@H]1CC[C@H](NC(=O)c2cnccn2)[C@H](CO)O1)NCc1ccccc1F,0.951
16,C[C@@H]1CN([C@H](C)CO)S(=O)(=O)c2ccc(-c3cccc(C(=O)N(C)C)c3)cc2O[C@H]1CN(C)C(=O)Cc1ccccn1,1.1
17,C=Cn1cnc2c1c(=O)n(C)c(=O)n2C,0.916
18,CN1C(=O)c2cc(NC(=O)c3cscn3)ccc2OC[C@H]2O[C@@H](CC(=O)N3CCOCC3)CC[C@H]21,1
19,COc1ccc(C(=O)/C=C/c2ccccc2)cc1,0.888
20,CC(=O)Nc1ccc(CC(=O)O)cc1,1.07
21,C[C@@H](CN1CC(=O)NC(=O)C1)N1CC(=O)NC(=O)C1,0.99
22,CC(=O)O[C@@H]1[C@H](OC(C)=O)N(C)C(=O)N1C,1.05
23,C[C@@H]1CN([C@@H](C)CO)C(=O)c2cc(-c3ccncc3)cnc2O[C@H]1CN(C)S(=O)(=O)c1ccc(F)cc1,1.01

row,SMILES,relative growth
1,CCC(=O)Nc1ccc(C)c(C)c1,0.883
2,O=C1NCCc2c(O)cccc21,1
3,Cc1nc2n(c(=O)c1CCN1CCC(c3noc4cc(F)ccc34)CC1)CCCC2,1
4,COC(=O)[C@]1(C)CCC[C@]2(C)c3ccc(C(C)C)cc3C(=O)CC12 (some centres undefined),0.891
5,C[C@@H]1CN([C@H](C)CO)S(=O)(=O)c2ccc(-c3cncnc3)cc2O[C@H]1CN(C)C(=O)Cc1ccccc1,0.93
6,NC(=S)Nc1nc2ccccc2[nH]c1=O,0.899
7,CC(C)C1=CC2=CCC3[C@](C)(CCC[C@]3(C)C(=O)O)C2CC1 (some centres undefined),0.981
8,C[C@@H]1CN([C@H](C)CO)S(=O)(=O)c2ccc(C#CC3(O)CCCC3)cc2O[C@H]1CN(C)C(=O)Cc1ccccc1,0.992
9,Cc1ccc(NC(=O)c2cc(=O)[nH]c(=O)[nH]2)cc1,1.17
10,O=C(Nc1cccc2cccnc12)[C@H]1[C@@H](c2ccc(C(F)(F)F)cc2)CC(=O)N1C(=O)OCc1ccccc1,1.09
11,COc1oc(C(=O)NC2CCCCC2)c(-c2ccc(Cl)cc2)c1S(=O)(=O)c1ccccc1Cl,0.873
12,C#C[C@]1(OC(C)=O)CCC2C3CCC4=C[C@@H](OC(C)=O)CCC4C3CC[C@@]21C (some centres undefined),1.15
13,O=C(NCC[C@@H]1CC[C@H](NS(=O)(=O)c2cccc(F)c2)[C@H](CO)O1)C1CC1,0.993
14,C[C@@H]1CN([C@@H](C)CO)S(=O)(=O)c2ccc(-c3cncnc3)cc2O[C@@H]1CN(C)C(=O)c1ccc2c(c1)OCO2,0.997
15,O=C(C[C@H]1C=C[C@H](NS(=O)(=O)c2ccccc2)[C@@H](CO)O1)NCc1ccncn1,1.06
16,CO[C@H]1CN(C)C(=O)c2cc(NS(C)(=O)=O)ccc2OC[C@H](C)N(C(=O)C2CCOCC2)C[C@@H]1C,0.964
17,COc1ccc([C@@H]([C@H](Cc2ccccc2)OC(C)=O)N2C[C@@H](CC(=O)N(C)C)[C@@H]3C(=NO[C@H]3c3ccccc3)[C@@H]2Cc2ccccc2)cc1,1.15
18,O=C(C[C@H]1C=C[C@H](NC(=O)CN2CCOCC2)[C@@H](CO)O1)NCc1cccc(F)c1,0.887
19,COc1cccc(S(=O)(=O)N(C)C[C@H]2Oc3cc(C#CCC(C)C)ccc3S(=O)(=O)N([C@@H](C)CO)C[C@H]2C)c1,1.32
20,C=C1C(=O)O[C@@H]2C[C@@]3(C)CCC[C@H](C)C3=C[C@H]12,1.09
21,O=C(C[C@H]1C=C[C@H](NS(=O)(=O)c2ccc(F)cc2)[C@@H](CO)O1)NCc1ccc(Cl)c(Cl)c1,0.961
22,COc1ccc(S(=O)(=O)N[C@H]2C=C[C@@H](CC(=O)N3CCN(c4ccccc4)CC3)O[C@H]2CO)cc1,0.999
23,O=C(O)c1cc(-c2ccc(F)cc2F)ccc1O,1.01

row,SMILES,relative growth
1,CCSc1cccc2cccnc12,0.96
2,CC(C)c1nc(N(C)S(C)(=O)=O)nc(-c2ccc(F)cc2)c1/C=C/[C@@H](O)C[C@@H](O)CC(=O)[O-].[Ca+2],1.08
3,COc1cccc(S(=O)(=O)N[C@H]2C=C[C@@H](CC(=O)NC3CCC3)O[C@@H]2CO)c1,1.2
4,CCCCNC(=O)NS(=O)(=O)c1ccc(C)cc1,0.951
5,Cc1cc(NC(=O)[C@@H]2CCCN2)no1,0.993
6,O=C(O)CCc1nnc2ccc(Cl)nn12,1.01
7,CN1CCC[C@@H]1CCO[C@](C)(c1ccccc1)c1ccc(Cl)cc1.O=C(O)/C=C/C(=O)O,1.11
8,CCCC(C(=O)OCCN(CC)CC)(c1ccccc1)c1ccccc1.Cl,0.698
9,NCCNC(=O)c1nc(-c2ccc(Br)o2)no1,1.02
10,CCOC(=O)/C(=N/O)C1=NNC(=N)SC1,1.15
11,COC(=O)c1c(C)cc(O)cc1O,0.909
12,O=C(/C=C/c1ccc(O)c(O)c1)O[C@@H]1O[C@H](CO)[C@@H](O)[C@H](O)[C@H]1O,1.03
13,Cc1ccc2[nH]c3c(c2c1)CCC[C@H]3Nc1ccc(Cl)cc1,1.03
14,O=C(Nc1c(Cl)cncc1Cl)c1ccc(OC(F)F)c(OCC2CC2)c1,1.19
15,CCOC(=O)OC(C)OC1=C(C(=O)Nc2ccccn2)N(C)S(=O)(=O)c2ccccc21 (centres undefined),1.07
16,C[C@@H]1CN([C@@H](C)CO)C(=O)CCCn2cc(nn2)CO[C@H]1CN(C)C(=O)c1ccc(N2CCN(C)CC2)cc1,1.13
17,COc1ccccc1CNS(C)(=O)=O,0.929
18,COc1ccccc1C#Cc1ccc2c(c1)O[C@H](CN(C)Cc1ccncc1)[C@@H](C)CN([C@H](C)CO)S2(=O)=O,1.02
19,CN(C)CCCNC(=O)C[C@H]1C=C[C@H](NC(=O)Cc2cccnc2)[C@@H](CO)O1,0.998
20,CCn1cc(C(=O)O)c(=O)c2cnc(N3CCCC3)nc21,0.997
21,O=C(C[C@@H]1CC[C@@H]2[C@H](COC[C@@H](O)CN2C(=O)c2ccccc2F)O1)N1CCN(c2ccccc2)CC1,0.864
22,O=C(CN1CCOCC1)N[C@H]1CC[C@H](CCn2cc(C3CC3)nn2)O[C@@H]1CO,0.986
23,O=C(O)CCC(=O)N[C@H]1CCCCNC1=O,1.06

row,SMILES,relative growth
1,CN(C)CCCNC(=O)C[C@@H]1C=C[C@H](NC(=O)Cc2cccnc2)[C@@H](CO)O1,1.04
2,COc1ccc([Si](C)(C)[C@@H]2[C@@H](CC(=O)N3Cc4ccccc4C[C@H]3CO)O[C@]3(C(=O)N(Cc4ccc(N5CCC5=O)cc4)c4ccccc43)[C@H]2C)cc1,0.785
3,O=C(COc1ccccc1)N1CCNC1=O,1.04
4,CC(C)Nc1ncccn1,0.878
5,CO[C@H]1CN(C)C(=O)c2ccc(NC(=O)C3CC3)cc2OC[C@H](C)N(C(=O)CN2CCOCC2)C[C@@H]1C,1.05
6,Cn1cnc(CCNC(=O)C[C@H]2CC[C@H]3[C@@H](COC[C@H](O)CN3C(=O)C3CC3)O2)c1,0.889
7,CCCc1cc(=O)n2ncnc2[nH]1,1.27
8,CC(C)=CCC[C@](C)(O)C1CC=C(C)CC1 (some centres undefined),0.804
9,C[C@@H]1CN([C@@H](C)CO)S(=O)(=O)c2ccc(C#Cc3cccnc3)cc2O[C@H]1CN(C)C(=O)CN(C)C,0.974
10,Cl.NCCCCCC(=O)O,0.897
11,CCOC(=O)[C@H](CCc1ccccc1)N[C@@H](C)C(=O)N1CCC[C@H]1C(=O)O.O=C(O)/C=C\C(=O)O,1.03
12,COC(=O)c1cccc(NC(=N)N=C(N)N)c1,1
13,CO[C@H]1C[C@@H](C[C@@H](C)[C@H]2CC(=O)[C@@H](C)/C=C(/C)[C@@H](O)[C@@H](OC)C(=O)[C@@H](C)C[C@@H](C)C=C/C=C\C=C(C)[C@H](OC)C[C@H]3CC[C@@H](C)[C@@](O)(O3)C(=O)C(=O)N3CCCC[C@@H]3C(=O)O2)CC[C@@H]1O,0.927
14,C[C@@H]1COC(=O)[C@@H](Cc2ccc(F)cc2)CCC=CC[C@@H](CC(=O)N[C@H](CO)Cc2ccccc2)C(=O)N1,1.08
15,CC(=O)NC[C@H]1C[C@@H](N(C(C)=O)S(=O)(=O)c2cccc3cncc(C)c23)CN1,0.968
16,CCCCCCc1ccc(O)cc1O,0.5
17,CC1(C)NC(=O)N(c2ccc([N+](=O)[O-])c(C(F)(F)F)c2)C1=O,0.895
18,COc1cccc(S(=O)(=O)N2C[C@H](O)COC[C@@H]3O[C@H](CC(=O)NCCCN4CCOCC4)CC[C@H]32)c1,0.819
19,CCC(=O)OCC(=O)[C@@]1(OC(=O)CC)[C@@H](C)CC2C3CCC4=CC(=O)C=C[C@]4(C)C3(F)[C@@H](O)C[C@@]21C (some centres undefined),1.06
20,Nc1ccc(OCC(=O)N2CCOCC2)cc1,1.02
